Among the data in patent US9926281B2 (priority 2014, dated 2018) are IC50 values, retold here.

Sequences of proteins named here, by UniProt entry; tags and fusion partners are left off. Residues count along the entry.
UniProt P08253, 110-660: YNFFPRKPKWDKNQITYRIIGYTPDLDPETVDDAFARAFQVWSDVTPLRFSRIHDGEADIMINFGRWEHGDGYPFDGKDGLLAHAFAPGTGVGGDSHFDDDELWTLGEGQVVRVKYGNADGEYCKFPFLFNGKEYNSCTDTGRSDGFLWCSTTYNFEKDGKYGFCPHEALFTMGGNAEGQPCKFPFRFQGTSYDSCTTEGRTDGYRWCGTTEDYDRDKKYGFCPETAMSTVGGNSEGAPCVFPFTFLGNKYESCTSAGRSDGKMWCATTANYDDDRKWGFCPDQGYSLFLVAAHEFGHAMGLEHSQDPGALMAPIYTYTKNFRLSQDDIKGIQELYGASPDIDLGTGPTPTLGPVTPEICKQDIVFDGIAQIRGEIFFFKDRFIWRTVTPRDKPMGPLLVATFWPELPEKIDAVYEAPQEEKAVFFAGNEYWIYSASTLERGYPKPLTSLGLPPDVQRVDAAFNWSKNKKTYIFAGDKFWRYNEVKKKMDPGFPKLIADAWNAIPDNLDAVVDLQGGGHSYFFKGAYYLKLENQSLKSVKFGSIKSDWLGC
UniProt P78536, whole entry, looked up, stated change not applied: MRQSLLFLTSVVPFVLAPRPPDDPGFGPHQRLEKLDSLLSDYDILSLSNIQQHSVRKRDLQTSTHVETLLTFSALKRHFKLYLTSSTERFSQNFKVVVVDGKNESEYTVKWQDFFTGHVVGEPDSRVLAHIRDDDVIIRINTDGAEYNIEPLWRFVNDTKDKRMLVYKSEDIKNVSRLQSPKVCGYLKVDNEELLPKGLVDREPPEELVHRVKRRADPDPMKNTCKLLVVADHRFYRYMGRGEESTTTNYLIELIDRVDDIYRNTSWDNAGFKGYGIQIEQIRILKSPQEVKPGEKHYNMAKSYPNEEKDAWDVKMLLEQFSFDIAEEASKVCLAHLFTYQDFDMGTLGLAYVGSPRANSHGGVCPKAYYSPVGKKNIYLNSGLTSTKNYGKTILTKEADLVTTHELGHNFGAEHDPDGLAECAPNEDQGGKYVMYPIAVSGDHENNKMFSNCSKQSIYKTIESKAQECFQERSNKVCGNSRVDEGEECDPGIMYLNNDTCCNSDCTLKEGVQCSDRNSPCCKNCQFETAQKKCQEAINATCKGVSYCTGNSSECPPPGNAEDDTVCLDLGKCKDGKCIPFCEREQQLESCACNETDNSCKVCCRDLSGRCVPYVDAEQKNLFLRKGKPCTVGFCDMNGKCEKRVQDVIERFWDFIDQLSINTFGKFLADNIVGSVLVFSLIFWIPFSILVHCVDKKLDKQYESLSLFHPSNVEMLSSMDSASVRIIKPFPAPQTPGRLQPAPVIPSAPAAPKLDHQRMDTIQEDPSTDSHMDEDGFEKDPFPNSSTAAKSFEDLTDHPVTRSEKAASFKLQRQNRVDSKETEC
UniProt Q9UNA0, 262-930: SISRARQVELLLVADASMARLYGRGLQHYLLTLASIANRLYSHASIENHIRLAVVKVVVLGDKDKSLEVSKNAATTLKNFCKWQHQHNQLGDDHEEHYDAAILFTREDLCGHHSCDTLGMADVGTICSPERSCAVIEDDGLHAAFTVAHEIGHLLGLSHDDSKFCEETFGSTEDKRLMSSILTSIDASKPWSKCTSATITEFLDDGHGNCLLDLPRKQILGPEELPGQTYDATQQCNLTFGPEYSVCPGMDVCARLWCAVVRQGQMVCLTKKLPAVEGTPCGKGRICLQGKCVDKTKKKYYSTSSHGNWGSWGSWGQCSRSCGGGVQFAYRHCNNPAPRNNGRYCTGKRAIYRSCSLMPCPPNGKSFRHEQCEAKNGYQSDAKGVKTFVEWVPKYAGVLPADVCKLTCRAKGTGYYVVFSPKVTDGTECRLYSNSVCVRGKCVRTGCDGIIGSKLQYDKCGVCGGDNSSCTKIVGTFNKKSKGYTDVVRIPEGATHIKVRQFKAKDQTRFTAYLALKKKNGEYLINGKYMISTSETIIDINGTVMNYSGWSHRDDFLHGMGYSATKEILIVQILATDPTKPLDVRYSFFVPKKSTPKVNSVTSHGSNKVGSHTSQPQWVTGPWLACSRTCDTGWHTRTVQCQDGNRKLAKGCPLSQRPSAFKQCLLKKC
UniProt P03956, 100-469: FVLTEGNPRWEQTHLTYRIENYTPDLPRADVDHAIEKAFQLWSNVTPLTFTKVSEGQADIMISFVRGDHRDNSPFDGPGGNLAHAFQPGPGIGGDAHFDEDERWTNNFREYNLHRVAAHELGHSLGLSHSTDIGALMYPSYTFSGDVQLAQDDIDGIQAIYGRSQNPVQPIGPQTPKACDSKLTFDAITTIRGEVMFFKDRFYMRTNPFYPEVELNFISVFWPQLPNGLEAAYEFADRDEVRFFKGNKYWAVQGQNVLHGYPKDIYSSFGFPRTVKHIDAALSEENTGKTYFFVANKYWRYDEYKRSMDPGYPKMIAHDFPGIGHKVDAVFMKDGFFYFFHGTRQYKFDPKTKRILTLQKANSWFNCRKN

One test deals with human MMP2 (Homo sapiens (Human), UniProt P08253). The test is described as follows: biochemical.
Another test addresses human MMP14 (Homo sapiens (Human), UniProt P50281). Conditions: read-out: hMMP-14 potency IC50.
A further test has as its target human TACE (Homo sapiens (Human), UniProt P78536). Conditions: read-out: TACE potency IC50.
In test [1] the target is T1, human ADAMTS-5 (Homo sapiens (Human), UniProt Q9UNA0). Conditions: read-out: hADAMTS-5 potency IC50.
Another test has as its target human MMP1 (Homo sapiens (Human), UniProt P03956). Conditions: read-out: hMMP-1 potency IC50.
For test [2], the target named is T1, human ADAMTS-5. Conditions: read-out: hADAMTS-5 potency IC50. The source holds these as a separate data set.
The next test has as its target human MMP13 (Homo sapiens (Human), UniProt P45452). To be noted: read-out: hMMP-13 potency IC50.

Read-outs that look alike come from different tables or passages of the source.

For the compound `C[C@H]1CN(C(=O)CCC2(c3ccc(C(F)(F)F)nc3)NC(=O)NC2=O)CCN1c1cc(F)cc(F)c1` (stereo partly drawn) [compound 335, 5-[3-[(3S)-4-(3,5-difluorophenyl)-3-methyl-piperazin-1-yl]-3-oxo-propyl]-5-[6-(trifluoromethyl)-3-pyridyl]imidazolidine-2,4-dione], the IC50 at human MMP2 was over 20 µM. Regarding `CC(C)c1cc(N2CCN(C(=O)CC[C@@]3(C)NC(=O)NC3=O)C[C@@H]2C)ccc1Cl` [compound 468, (5R)-5-[3-[(3S)-4-(4-chloro-3-isopropyl-phenyl)-3-methyl-piperazin-1-yl]-3-oxo-propyl]-5-methyl-imidazolidine-2,4-dione], the figures for the IC50 on human MMP14, at human TACE and on human ADAMTS-5 [1] were over 20 µM, over 4 µM and over 4000 nM, respectively. `Cc1ccccc1N1CCN(C(=O)CC[C@@]2(c3ccccc3)NC(=O)NC2=O)CC1` [compound 27, (5S)-5-[3-[4-(o-tolyl)piperazin-1-yl]-3-oxo-propyl]-5-phenyl-imidazolidine-2,4-dione]: on human MMP1, the IC50 came out at 30 µM. `COCC1(CC(C)C(=O)N2CCN(c3cncc(F)c3)[C@@H](C)C2)NC(=O)NC1=O` (stereo partly drawn) [compound 364, 5-[3-[(3S)-4-(5-fluoro-3-pyridyl)-3-methyl-piperazin-1-yl]-2-methyl-3-oxo-propyl]-5-(methoxymethyl)imidazolidine-2,4-dione] yielded an IC50 at human MMP2 of over 20 µM. As for `CN(C)CCC1(CCC(=O)N2CCN(c3cccc(Cl)c3)CC2)NC(=O)NC1=O` (stereo not shown) [compound 44, 5-[3-[4-(3-chlorophenyl)piperazin-1-yl]-3-oxo-propyl]-5-(2-dimethylaminoethyl)imidazolidine-2,4-dione], the IC50 on human ADAMTS-5 [2] was 553 nM. Take `COCCOCC1(CC(C)C(=O)N2CCN(c3cc(Cl)cc(Cl)c3)[C@@H](C)C2)NC(=O)NC1=O` (stereo partly drawn) [compound 426, 5-(3-((S)-4-(3,5-dichlorophenyl)-3-methylpiperazin-1-yl)-2-methyl-3-oxopropyl)-5-((2-methoxyethoxy)methyl)imidazolidine-2,4-dione]: the IC50 on human MMP13 is over 4 µM. Regarding `CCc1cc(N2CCN(C(=O)CCC3(CCC(=O)OC(C)(C)C)NC(=O)NC3=O)C[C@@H]2C)ccc1Cl` (stereo partly drawn) [compound 475, tert-butyl 3-[4-[3-[(3S)-4-(4-chloro-3-ethyl-phenyl)-3-methyl-piperazin-1-yl]-3-oxo-propyl]-2,5-dioxo-imidazolidin-4-yl]propanoate], the results for the half-inhibitory concentration (IC50) on human MMP14, at human TACE and on human ADAMTS-5 [1] were over 4 µM, 2.65 µM and 307 nM, respectively. For `CCc1cc(N2CCN(C(=O)C(C)CC3(COC)NC(=O)NC3=O)C[C@@H]2C)ccc1Cl` (stereo partly drawn) [compound 481, 5-[3-[(3S)-4-(4-chloro-3-ethyl-phenyl)-3-methyl-piperazin-1-yl]-2-methyl-3-oxo-propyl]-5-(methoxymethyl)imidazolidine-2,4-dione], the IC50 on human TACE came out at 3.95 µM; on human ADAMTS-5 [1], 29 nM. In the case of `Cc1ccc(Cl)cc1N1CCN(C(=O)CCC2(C3CC3)NC(=O)NC2=O)CC1` (stereo not shown) [compound 36, 5-[3-[4-(5-chloro-2-methyl-phenyl)piperazin-1-yl]-3-oxo-propyl]-5-cyclopropyl-imidazolidine-2,4-dione], at human MMP1, the IC50 came out at 30 µM. Consider `CCc1cc(N2CCN(C(=O)CCC3(CCC(=O)O)NC(=O)NC3=O)C[C@@H]2C)ccc1Cl` (stereo partly drawn) [Cpd 477, 3-[4-[3-[(3S)-4-(4-chloro-3-ethyl-phenyl)-3-methyl-piperazin-1-yl]-3-oxo-propyl]-2,5-dioxo-imidazolidin-4-yl]propanoic acid], for which the values for the IC50 on human MMP14, at human TACE and on human ADAMTS-5 [1] were over 20 µM, over 20 µM and 239 nM, respectively.

As for `C[C@H]1CN(C(=O)CCC2(c3ccccn3)NC(=O)NC2=O)CCN1c1ccc(F)c(Cl)c1` (stereo partly drawn) [compound 457, 5-[3-[(3S)-4-(3-chloro-4-fluoro-phenyl)-3-methyl-piperazin-1-yl]-3-oxo-propyl]-5-(2-pyridyl)imidazolidine-2,4-dione], the IC50 at human TACE is over 4 µM. `C[C@H]1CN(C(=O)CCC2(C3CC3)NC(=O)NC2=O)CCN1c1cccc2c1cnn2C` (stereo partly drawn) [compound 333, 5-cyclopropyl-5-[3-[(3S)-3-methyl-4-(1-methylindazol-4-yl)piperazin-1-yl]-3-oxo-propyl]imidazolidine-2,4-dione] registered an IC50 on human MMP2 of over 20 µM. As to `O=C1NC(=O)C(CCC(=O)N2CCN(c3cc(Cl)cc(Cl)c3)CC2)(C2CC2)N1` (stereo not shown) [compound 55, 5-cyclopropyl-5-[3-[4-(3,5-dichlorophenyl)piperazin-1-yl]-3-oxo-propyl]imidazolidine-2,4-dione], the concentration for half-maximal inhibition (IC50) at human MMP1 was over 30 µM.

Consider `CC1(CCC(=O)N2CCN(c3cc(Cl)cc(Cl)c3)CC2)NC(=O)NC1=O` (stereo not shown) [compound 40, 5-[3-[4-(3,5-dichlorophenyl)piperazin-1-yl]-3-oxo-propyl]-5-methyl-imidazolidine-2,4-dione], for which, on human MMP1, the 50% inhibitory concentration (IC50) was over 30 µM. For the compound `CCc1cc(N2CCN(C(=O)CCC3(CC(=O)O)NC(=O)NC3=O)C[C@@H]2C)ccc1Cl` (stereo partly drawn) [Cpd 471, 2-[4-[3-[(3S)-4-(4-chloro-3-ethyl-phenyl)-3-methyl-piperazin-1-yl]-3-oxo-propyl]-2,5-dioxo-imidazolidin-4-yl]acetic acid], on human ADAMTS-5 [1], the IC50 is 852 nM.

The term IC50 denotes the midpoint of a concentration-inhibition curve.
